# scFv variants of Ab-14 (light chain) against a SARS-CoV-2 spike peptide

The measurements come from Engelhart et al. 2022 (doi:10.1038/s41597-022-01779-4) through the FLAb antibody collection.

All variants were tested on one target, the spike HR2 peptide PDVDLGDISGINAS (SARS-CoV-2).

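Phage display of a naive human antibody library on the peptide gave the parent. Library AAYL50 holds single substitutions and randomly drawn double and triple substitutions in the CDRs. In AlphaSeq, yeast of one mating type display the scFv and yeast of the other type display the target. Mating (16 h, 30 °C) was followed by selection of diploids and sequencing of their barcodes. The ratio of observed to expected reads was calibrated, replicate by replicate, on BCL2-family standards whose Kd was known from biolayer interferometry. There are three technical replicates.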

Ab-14 is the parent antibody, in scFv form: VH, then a (GGGGS)3 linker, then VL. The heavy chain is unchanged in all variants.
VH: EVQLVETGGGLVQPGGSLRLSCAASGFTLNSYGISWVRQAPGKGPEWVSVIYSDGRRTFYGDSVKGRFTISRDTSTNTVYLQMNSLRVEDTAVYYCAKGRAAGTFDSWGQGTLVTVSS
VL: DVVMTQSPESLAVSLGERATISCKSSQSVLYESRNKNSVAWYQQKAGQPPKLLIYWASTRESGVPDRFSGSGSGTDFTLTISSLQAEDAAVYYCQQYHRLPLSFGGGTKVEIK

Positions count from residue 1 of the parent VL; A40G puts G in place of A. Every variant below is changed at A40 of the VL (sequential numbering). Values are log10 of the apparent Kd in nM; lower means stronger binding. The mean shown is taken over the replicates in which the pair was detected. "nd" means that the variant was in the library but no mating with the target was seen in that replicate; the authors take this as a sign of poor binding, and no number exists. Entries are sorted by rising average, undetected variants last. Background: pairings of library AAYL50 with three empty control strains gave a value in 18% of cases (median 4.19, 5th percentile 2.99). Values in that range, when seen in few replicates, are hard to tell from nonspecific mating.

The variant A40G T59H L100M gave 1.90, 2.50, 1.56 (mean 1.99). With A40C R99T P101R the result was 3.09, 1.62, 2.52 (mean 2.41). For A40Q Q96D R99D, the assay gave nd, 3.28, nd. The variant S33V K36V A40L showed 3.29, nd, nd. With N37H A40T A57H the result was 3.51, 3.38, nd (mean 3.45). The variant V29E A40C S62G showed nd, nd, 3.58.

The variant Y31L A40T A57M showed nd, nd, 3.73. The variant S38A A40Y E61P gave nd, nd, 3.74. The variant S33D A40D R60G showed nd, nd, 3.94. The variant R34T A40G S103F gave 4.57, 3.51, 3.91 (mean 4.00). With E32S A40H S62T the result was nd, 2.80, 5.55 (mean 4.18). The variant A40C R60P Y97D gave nd, 3.91, 4.57 (mean 4.24).

With Q27A E32K A40Q the result was 4.24, 4.73, nd (mean 4.49). With N35Y A40P T59H the result was nd, 4.78, nd. For N35T A40Q Q96T, the assay gave 4.33, nd, 5.59 (mean 4.96). With A40K S62G the result was nd, 5.08, nd. The variant S25Q A40Q P101E showed nd, nd, 5.36. With A40E L100Q the result was nd, nd, 5.52.

The variant N35G A40I W56I showed nd, nd, nd. The variant A40F L102Q showed nd, nd, nd. The variant A40G H98W showed nd, nd, nd. With K24H A40S L102D the result was nd, nd, nd. For S26T L30M A40N, the assay gave nd, nd, nd. The variant A40S Q96M showed nd, nd, nd.

With A40I T59E Q95C the result was nd, nd, nd. The variant A40W Q95D showed nd, nd, nd. The variant S25N A40V W56R showed nd, nd, nd. For A40W Q95E S103Y, the assay gave nd, nd, nd. The variant S33L A40Y showed nd, nd, nd. With R34F N35S A40I the result was nd, nd, nd.

For K24N A40Y L102P, the assay gave nd, nd, nd. With A40I the result was nd, nd, nd. For N35R A40N P101C, the assay gave nd, nd, nd. The variant S33F N35A A40D gave nd, nd, nd. The variant A40L Y97F R99M gave nd, nd, nd. For A40D S103E, the assay gave nd, nd, nd.

The variant E32C A40E L102F showed nd, nd, nd. With S38I A40Q S103G the result was nd, nd, nd. The variant K24Q V29M A40I gave nd, nd, nd. The variant A40Q S58W L102N showed nd, nd, nd. For A40Y, the assay gave nd, nd, nd. With Y31F A40R Y97P the result was nd, nd, nd.

For Q27A L30Q A40E, the assay gave nd, nd, nd.

For reference, 6 entries of the list once more:

changes,"replicates, log10 nM","log10 Kd (nM), mean"
A40E L100Q,"nd, nd, 5.52",5.52
K24H A40S L102D,"nd, nd, nd",nd
S26T L30M A40N,"nd, nd, nd",nd
S33L A40Y,"nd, nd, nd",nd
A40C R60P Y97D,"nd, 3.91, 4.57",4.24
A40W Q95D,"nd, nd, nd",nd